Compound activity from PubChem.
Hits are enriched below; roughly 13% of the tested compounds scored in any of these assays.
G9a inh: inhibitors of human histone lysine methyltransferase G9a. Q96KQ7. G9a H3K9 monomethylation, AlphaScreen, 2 h. Potency, µM (titrated, usually from 102 µM), for inactives: at the top dose activity, negative = inhibition, hits mostly inhibitors. 350,000 compounds, 8.8% hits; note: potency is the fitted concentration of half-maximal effect; % is set by controls: 0 for no effect and ±100 for the full control effect; nearly all actives have a fitted effect of over 75% in size
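G9a (20 nM) preincubated 15 min RT with compounds, then 500 nM biotinylated H3K9 peptide and 20 uM SAM added; 2 h RT reaction. Monomethyl-H3K9 product detected by AlphaScreen with anti-H3K9me1 antibody, streptavidin donor and anti-rabbit IgG acceptor beads.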
Sfp PPTase inh: blocks B. subtilis Sfp PPTase activity; Q9F4F7; Biochemical Sfp PPTase activity, qHTS; Potency, µM, for the others: max response, negative = inhibition, most hits filed as inhibitors; actives 3.5% (n = 310,000); AID 1490; active = well fitted inhibition curve with a large enough effect; inconclusive = small, poorly fitted or top-dose-only effect, or another doubt; inactive = no such curve, though single readings can be large or run the other way;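 also: the enzyme is Sfp with the accession as filed and its product quenches rhodamine fluorescence; potency is read from the fitted curve at half-maximal effect; 0% = enzyme reaction without inhibitor and -100% = no enzyme wells; top concentration of the series not given in the record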
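Sfp 15 nM + cpd, 15 min RT; start w/ rhodamine-CoA 5 uM, BHQ-2-YbbR 12.5 uM (final); 50 mM Hepes pH 7.6, 10 mM MgCl2, 0.01% NP-40, 0.01% BSA; read 525/598 nm at 0 and 30 min.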
miR-21 reporter: miR-21 reporter, rising signal; Potency, µM (top dose mostly 38.3 µM), for the others: at the highest dose reporter change, positive = more light; 340,000 tested, under 10 active; HeLa miR-21 FLuc reporter, luciferase, 48 h; active = well fitted rising curve with a large enough effect; inconclusive = small, poorly fitted or top-dose-only effect; inactive = no such curve, though single readings can be large or run the other way;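 note: % of control where 0% means no effect; miR-21 action dims this reporter so a rising signal means less miR-21 action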
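HeLa cells stably expressing CMV-driven firefly luciferase with a downstream miR-21 binding sequence, endogenously expressing miR-21, were treated with titrations (up to about 40uM final) for 48 hours at 37 degree Celsius. Luciferase luminescence was read after lysis.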
JMJD2E inh: JMJD2E (human) inhibition; B2RXH2; JMJD2E catalytic domain, FDH-coupled NADH fluorescence (FDH is formaldehyde dehydrogenase); Potency, µM (doses to about 57.1 µM), without a hit: top-dose activity change, negative = inhibition, usual class: inhibitors; 230,000 compounds, 1.6% hits; active = well fitted inhibition curve with a large enough effect, not every such curve was filed as active; inconclusive = small, poorly fitted or top-dose-only effect, or another doubt; inactive = no such curve, though single readings can be large or run the other way;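 note: potency is the fitted concentration of half-maximal effect; 0% = wells with enzyme and -100% = buffer wells without enzyme; nearly all actives have a fitted effect of over 50% in size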
LMNA splice mod: modulators of lamin A splicing | Potency, µM (titrated, usually from 46.1 µM), inactives show top-dose ratio change, negative = inhibition, most hits filed as inhibitors | HeLa LMNA splicing GFP/RFP minigene ratio, 48 h | 200,000 compounds, 0.01% hits; active = well fitted inhibition curve with a large enough effect in the signal ratio, with a control signal flat, not every such curve was filed as active; inconclusive = small, poorly fitted or top-dose-only effect, or effect the other way, or a change in a side signal; the % refers to the signal ratio; note: potency is the fitted concentration of half-maximal effect; % is set by controls: 0 for no effect and ±100 for the full control effect
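Read-out is the ratio of GFP to DsRed2 object intensity, acquired by 488 nm laser-scanning cytometry on HeLa lamin A-EGFP minigene reporter cells. Compound incubation 48 hrs at 37 °C in Opti-MEM with 2% FBS; DMSO 0.5% final.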
ALDH1A1 block: blocks purified human ALDH1A1 activity; P00352; Purified ALDH1A1, NADH fluorescence, propionaldehyde substrate; Potency, µM (doses to about 75.3 µM), without a hit: at the highest dose activity, negative = inhibition, actives largely listed as inhibitors; 220,000 compounds, 7.3% hits; AID 1030; active = well fitted inhibition curve with a large enough effect, not every such curve was filed as active; inconclusive = small, poorly fitted or top-dose-only effect, or another doubt; inactive = no such curve, though single readings can be large or run the other way;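 note: potency is the fitted concentration of half-maximal effect; plate controls were no enzyme wells and a reference inhibitor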
Starred values were filed as active, the others as inactive; ? = inconclusive; . = no result given; ! = not active in a repeat; [ ] = remark or other dose. Unless noted, calls come from the whole dose curve; as a rule, active = well fitted curve in the direction sought with a large enough effect; inconclusive = small, poorly fitted or top-dose-only effect, or another doubt; inactive = no such curve, though single readings can be large; an effect the other way counts as inactive or inconclusive.

#1 CCc1ccc(NC(=O)CSc2nnc(Cc3cccn3C)n2-c2ccc(F)cc2)cc1
#2 Cn1cccc1Cc1nnc(SCC(=O)NCc2ccccc2)n1-c1ccc(F)cc1
#3 Cc1ccc(NC(=O)CSc2nnc(Cc3cccn3C)n2-c2ccc(F)cc2)cc1
#4 Cn1cccc1Cc1nnc(SCC(=O)N2CCN(c3ccccc3)CC2)n1-c1ccc(F)cc1
#5 Cc1ccc(C)c(-n2c(Cc3cc(=O)[nH]c(=O)[nH]3)nnc2SC(C)C)c1
#6 Cn1cccc1Cc1nnc(SCC(=O)NCc2ccc(F)cc2)n1-c1ccc(F)cc1
#7 Cc1[nH]c(=O)[nH]c(=O)c1CSCC(=O)OCC(=O)Nc1ccccn1
#8 CC(=O)c1cccc(NC(=O)Nc2c(C)n(C)n(-c3ccccc3)c2=O)c1

screen / no. | 1 | 2 | 3 | 4 | 5 | 6 | 7 | 8
G9a inh | ? | 50.1µM* | ? | ? | 50.1µM* | 50.1µM* | ? | 2.3%[59 µM]
Sfp PPTase inh | 13.9% | -7.2% | -8.8% | -17.1% | -4.8% | -5.3% | 14.4% | .
miR-21 reporter | 1.1% | 2.5% | -5.9% | -7.0% | -1.8% | -1.2% | 2.4% | 6.8%
JMJD2E inh | -12.3% | -27.7% | 1.2% | -29.9% | 0.4% | -4.9% | -3.7% | .
LMNA splice mod | -14.0% | -6.0% | ? | 0.2% | 6.5% | -5.8% | . | .
ALDH1A1 block | ? | -13.6% | ? | 14.1µM* | -7.1% | ? | . | .

#9 CCOc1ccc(NC(=O)C2CCN(C(=O)C3CC(=O)N(c4ccc(C)cc4)C3)CC2)cc1 (stereo not given)
#10 CN(c1ccccc1)c1ccc(/C=C/[N+](=O)[O-])cc1
#11 CCN(CC)CCNCc1ccc(-c2ccc(Cl)cc2)o1
#12 CCN(CC)CCNCC(O)(c1ccc(Cl)cc1)c1ccc(Cl)cc1
#13 Nc1ccc([N+](=O)[O-])cc1O
#14 Nc1cc([N+](=O)[O-])ccc1Nc1ccc(O)cc1
#15 COc1ccc(C[C@@H]2C(=O)N[C@H](C)C(=O)N(C)[C@@H]3Cc4ccc(cc4)Oc4cc(ccc4O)C[C@H](C(=O)N[C@@H](C)C(=O)N[C@H](C)C(=O)N2C)N(C)C3=O)cc1
#16 Cc1ccc(O)c(N=Nc2ccccc2)n1

screen / no. | 9 | 10 | 11 | 12 | 13 | 14 | 15 | 16
G9a inh | 2.0% | ? | 50.1µM* | -28.9% | . | 10µM* | . | 11.2µM*!
Sfp PPTase inh | 9.8% | 17.8µM* | -2.1% | 5.0% | . | 56.2µM* | . | ?
miR-21 reporter | -2.9% | ? | -16.1% | 3.8% | . | -5.9% | . | .
JMJD2E inh | . | 2.6% | -8.7% | 13.8% | . | ? | . | -5.7%
LMNA splice mod | . | ? | -5.3% | ? | . | . | . | ?
ALDH1A1 block | . | 8.91µM* | -0.1% | -3.2% | -3.7% | . | -0.2%[13.5 µM] | ?

#17 O=c1ccc(NS(=O)(=O)c2ccccc2Cl)cn1Cc1ccc(Cl)c(Cl)c1
#18 O=C(NCc1ccccc1)NS(=O)(=O)c1ccccc1Cl
#19 Cc1ccc(S(=O)(=O)Nc2ccc(=O)n(Cc3ccc(Cl)c(Cl)c3)c2)cc1
#20 O=C(O)Cc1ccc(NS(=O)(=O)c2ccccc2Cl)cc1
#21 O=C(c1ccc2c(=O)n(Cc3ccccc3Cl)c(=S)[nH]c2c1)N1CCCC1
#22 CCOC(=O)C(=CNc1ccc(OC)cc1[N+](=O)[O-])C(=O)OCC
#23 CN1c2ccccc2C(=O)N2CCc3c([nH]c4ccccc34)C21 (stereo not given)
#24 O=C(C[n+]1cc(-c2ccc(Cl)cc2)n2c1CCC2)N1c2ccccc2Sc2ccccc21

screen / no. | 17 | 18 | 19 | 20 | 21 | 22 | 23 | 24
G9a inh | 28.2µM* | -30.1%[2.33 µM] | ? | 22.4µM* | 24.1% | ? | . | ?
Sfp PPTase inh | 14.8% | 4.4% | ? | -27.1% | 16.0% | 5.1% | 3.8% | ?
miR-21 reporter | -2.9% | -4.9% | -4.9% | -1.2% | 4.4% | 3.1% | . | -3.0%
JMJD2E inh | -11.0% | -6.6% | ? | 3.2% | . | -14.5% | . | ?
LMNA splice mod | 23.9%[9.22 µM] | 10.7% | ? | . | . | ? | . | -25.8%
ALDH1A1 block | ? | 3.6% | ? | ? | . | -6.9% | . | -2.1%

#25 O=C(C[n+]1cc(-c2ccc(Cl)c(Cl)c2)n2c1CCC2)N1c2ccccc2Sc2ccccc21
#26 CCCCC#Cc1ccccc1CC(=O)Nc1ccccc1
#27 CC1=C(C(=O)OCC2CCCCC2)C(c2ccc(Cl)cc2)CC(=O)N1 (stereo not given)
#28 CCOc1cc(-c2sc(Nc3ccccc3)n[n+]2C)ccc1OC
#29 COc1ccc(-c2sc(Nc3ccccc3)n[n+]2C)c(C)c1C
#30 Cc1ccc(C(=O)NC2(O)C(=O)c3ccccc3C2=O)cc1C
#31 CCOc1cc(C(=O)N2CCn3c4c(c5cc(C)ccc53)CCCC42)cc(OCC)c1OCC (stereo not given)
#32 CC(=O)N1CCn2c3c(c4cc(C)ccc42)CCCC31 (stereo not given)

screen / no. | 25 | 26 | 27 | 28 | 29 | 30 | 31 | 32
G9a inh | ? | 7.94µM* | -3.3%[59 µM] | 44.7µM* | . | 50.1µM* | -1.6%[59 µM] | -10.0%[12.7 µM]
Sfp PPTase inh | 44.7µM* | 13.5% | . | -0.9% | 1.1% | 7.0% | . | -5.9%
miR-21 reporter | 15.7% | -1.7% | 17.5% | 7.1% | 6.1% | 11.0% | -2.1% | -3.7%
JMJD2E inh | 1.9% | ? | . | . | . | 14.1µM* | . | ?
LMNA splice mod | ? | ? | . | . | . | . | . | -4.9%[46 µM]
ALDH1A1 block | ? | -1.8% | . | . | . | . | . | -1.8%

#33 CCN1CCn2c3c(c4cc(C)ccc42)CCCC31 (stereo not given)
#34 CCN1CCn2c3c(c4cccc(C)c42)CCCC31 (stereo not given)
#35 COc1ccc(N2C(=O)C3CCCN3C2c2cccc(C)c2)cc1Cl (stereo not given)
#36 O=C1C2CCCN2C(c2ccc(F)cc2)N1c1nccs1 (stereo not given)
#37 O=C1C2CCCN2C(c2ccc(Cl)cc2)N1c1nccs1 (stereo not given)
#38 Cc1cccc(C2N(c3nccs3)C(=O)C3CCCN32)c1 (stereo not given)
#39 Cc1ccc(C2N(c3nccs3)C(=O)C3CCCN32)cc1 (stereo not given)
#40 O=C(NNC(=S)Nc1ccccc1)c1cc(Br)ccc1Cl

screen / no. | 33 | 34 | 35 | 36 | 37 | 38 | 39 | 40
G9a inh | 20µM* | 70.8µM* | ? | -31.2%[12.7 µM] | 15.8µM* | 7.94µM* | 12.6µM* | 39.8µM*
Sfp PPTase inh | -18.8% | -5.0% | 8.4% | ? | 1.0% | ? | ? | 13.5%
miR-21 reporter | -30.1% | 0.8% | 2.9% | -3.0% | -0.8% | -1.6% | -6.3% | -5.1%
JMJD2E inh | ? | . | -3.9% | 9.5% | 2.8% | ? | 6.1% | .
LMNA splice mod | -2.3% | . | -4.0% | 6.7% | 0.9% | 12.7% | 9.4% | .
ALDH1A1 block | 0.9% | . | ? | -13.8% | -9.9% | ? | -11.9% | .

Full records, looked up by structure. Order of values: G9a inh, Sfp PPTase inh, miR-21 reporter, JMJD2E inh, LMNA splice mod, ALDH1A1 block
`CCN1CCn2c3c(c4cccc(C)c42)CCCC31` (stereo not given) across the screens: 70.8µM*, -5.0%, 0.8%, ., ., .
`Cc1ccc(C2N(c3nccs3)C(=O)C3CCCN32)cc1` (stereo not given) across the screens: 12.6µM*, ?, -6.3%, 6.1%, 9.4%, -11.9%
`CCN1CCn2c3c(c4cc(C)ccc42)CCCC31` (stereo not given) across the screens: 20µM*, -18.8%, -30.1%, ?, -2.3%, 0.9%

(cont.)
#41 Cc1ccc(NC(=S)NNC(=O)Nc2ccccc2)cc1
#42 O=C(NNC(=S)Nc1ccccc1)c1ccncc1
#43 O=C(NNC(=S)Nc1ccccc1)NNC(=S)Nc1ccccc1
#44 O=C(NNC(=S)Nc1ccccc1)Nc1ccccc1
#45 CCOc1cccc2cc(C(=O)NCc3ccc(OC)cc3)c(=N)oc12
#46 Cn1c(CNC(=O)CCNC(=O)c2ccc(F)c(F)c2)cc(=O)n(C)c1=O
#47 CCN(C(=O)c1cccnc1SC)C12CC3CC(CC(C3)C1)C2

screen / no. | 41 | 42 | 43 | 44 | 45 | 46 | 47
G9a inh | ? | ? | 14.1µM* | . | 33.2% | 12.5% | 3.0%
Sfp PPTase inh | ? | 2.6% | 6.6% | 7.08µM* | -2.4% | 9.8% | 11.1%
miR-21 reporter | -58.1% | -23.7% | 1.0% | -38.7% | -0.3% | -1.0% | 14.3%
JMJD2E inh | -1.7% | -4.7% | -13.8% | ? | . | . | .
LMNA splice mod | . | 10.9% | ? | -9.0%[46 µM] | . | . | .
ALDH1A1 block | 2.24µM* | ? | ? | 14.1µM* | . | . | .
